Assay results reported in PubChem BioAssay AID504523 (Broad Institute, 2011).
Only a part is listed here, and it is no random draw. Some salts and complexes are drawn in separate pieces, as the source files them; their charges need not balance. Activity calls are given as the source filed them. Cut-off read from the data, not from the text of the source: active = inhibition above about 12%; inconclusive = no clear call, values can overlap the other calls; inactive = below about 7.3%.

Chains of the proteins cited; added tags and fusions are not shown.
UniProt Q14145, whole entry: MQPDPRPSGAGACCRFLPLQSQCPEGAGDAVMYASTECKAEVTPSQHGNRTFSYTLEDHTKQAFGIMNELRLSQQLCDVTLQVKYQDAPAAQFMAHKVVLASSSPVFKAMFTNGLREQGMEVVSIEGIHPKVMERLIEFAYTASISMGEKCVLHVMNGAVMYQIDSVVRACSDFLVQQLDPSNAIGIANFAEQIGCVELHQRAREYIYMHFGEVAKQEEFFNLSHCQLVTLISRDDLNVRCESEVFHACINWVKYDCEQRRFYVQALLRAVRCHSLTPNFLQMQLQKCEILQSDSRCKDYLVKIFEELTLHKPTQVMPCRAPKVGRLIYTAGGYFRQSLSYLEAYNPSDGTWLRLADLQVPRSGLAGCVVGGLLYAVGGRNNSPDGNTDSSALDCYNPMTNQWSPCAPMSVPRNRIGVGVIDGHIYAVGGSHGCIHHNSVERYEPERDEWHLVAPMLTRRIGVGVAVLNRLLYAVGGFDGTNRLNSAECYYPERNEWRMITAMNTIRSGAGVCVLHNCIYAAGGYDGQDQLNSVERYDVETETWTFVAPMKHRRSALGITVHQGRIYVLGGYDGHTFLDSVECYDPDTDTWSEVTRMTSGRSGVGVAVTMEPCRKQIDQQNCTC
UniProt Q16236, whole entry partner: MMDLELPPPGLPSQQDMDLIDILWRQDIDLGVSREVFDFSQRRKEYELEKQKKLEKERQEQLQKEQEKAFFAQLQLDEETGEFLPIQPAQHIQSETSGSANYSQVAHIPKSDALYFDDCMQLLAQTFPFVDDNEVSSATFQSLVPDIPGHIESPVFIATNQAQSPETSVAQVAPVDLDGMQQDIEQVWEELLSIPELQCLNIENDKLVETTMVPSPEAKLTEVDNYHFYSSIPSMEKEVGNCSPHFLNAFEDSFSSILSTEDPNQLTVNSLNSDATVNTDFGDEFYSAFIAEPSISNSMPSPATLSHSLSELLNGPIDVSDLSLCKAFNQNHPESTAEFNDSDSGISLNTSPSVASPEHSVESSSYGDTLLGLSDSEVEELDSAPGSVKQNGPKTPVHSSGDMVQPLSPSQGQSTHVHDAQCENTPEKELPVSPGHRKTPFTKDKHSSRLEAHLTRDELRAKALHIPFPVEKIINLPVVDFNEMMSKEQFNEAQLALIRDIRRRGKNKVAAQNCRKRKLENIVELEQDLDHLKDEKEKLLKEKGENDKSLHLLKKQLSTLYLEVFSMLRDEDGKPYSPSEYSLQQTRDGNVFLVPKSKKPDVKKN

Target: Kelch-like ECH-associated protein 1 (Homo sapiens) (UniProt Q14145)
Experiment: disruptors of Keap1 binding to Nrf2 – biochemical, fluorescence polarization, single point, primary screen (AID 504523);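 note: human Keap1 Kelch domain with fluorescein labeled Nrf2 9mer peptide probe; 0% = neutral control wells and 100% = peptide positive control; higher means more block of Keap1 binding to Nrf2 peptide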
Conditions: Keap1 Kelch-Nrf2 peptide fluorescence polarization, 1536-well; at 9.4 µM; stronger effect = higher value

| SMILES | inhibition |
| --- | --- |
| Cc1cc(C)cc(OP(C)(=O)Nc2ccc(C)cc2C)c1 (stereo not given) | inactive: 0.472% |
| CCOC(=O)c1ccc(NP(C)(=O)Oc2cc(C)cc(C)c2)cc1 (stereo not given) | inactive: 7.28% |
| COc1ccccc1OP(C)(=O)Nc1cccc(Br)c1 (stereo not given) | inactive: -0.638% |
| Cc1cc(C)cc(OP(C)(=O)Nc2ccccn2)c1 (stereo not given) | inactive: -3.44% |
| CP(=O)(Nc1cccc(Br)c1)Oc1ccccc1 (stereo not given) | inactive: -0.775% |
| Cc1ccc(C)c(NP(C)(=O)Oc2ccccc2)c1 (stereo not given) | inactive: 0.303% |
| O=C(O)c1cccc(Nc2c([N+](=O)[O-])cc([N+](=O)[O-])cc2[N+](=O)[O-])c1 | inactive: -6.72% |
| CC1=NCCc2c1[nH]c1ccccc21.O=[N+]([O-])c1cc([N+](=O)[O-])c(O)c([N+](=O)[O-])c1 | inactive: -3.97% |
| CCOC(=O)C(CC)C1=NC(C)(C)Cc2ccccc21.O=[N+]([O-])c1cc([N+](=O)[O-])c(O)c([N+](=O)[O-])c1 (stereo not given) | inactive: -5.43% |
| CC1=C2N=C(C=C3N=C(C(C)=C4[N-][C@@](C)([C@@H]5N=C1[C@](C)(CCC(=O)NC[C@@H](C)OP(=O)([O-])O[C@H]1[C@@H](O)[C@@H](n6cnc7cc(C)c(C)cc76)O[C@@H]1CO)[C@H]5CC(N)=O)[C@@](C)(CC(N)=O)[C@@H]4CCC(N)=O)[C@@](C)(CC(N)=O)[C@@H]3CCC(N)=O)C(C)(C)[C@@H]2CCC(N)=O.[C-]#N.[Co+3] | inactive: -1.67% |
| O=[N+]([O-])c1cc([N+](=O)[O-])c(Nc2nnnn2CCO)c([N+](=O)[O-])c1 | inactive: 0.16% |
| CCCOc1ccc(NP(C)(=O)Oc2ccc(Cl)cc2)cc1 (stereo not given) | inactive: 3.28% |
| CP(=O)(Nc1ccc(SC(F)(F)F)cc1)Oc1ccccc1 (stereo not given) | inactive: 1.71% |
| COc1ccccc1OP(C)(=O)Nc1c(C)cccc1C (stereo not given) | inactive: -1.47% |
| CN1CCCCC1COC(=O)C1(O)c2ccccc2CCc2ccccc21 (stereo not given) | inactive: -3.15% |
| O=[N+]([O-])c1cc([N+](=O)[O-])c(-n2nnc3ccccc32)c([N+](=O)[O-])c1 | inactive: 0.45% |
| Cc1nc2ccc3ccccc3c2s1.O=[N+]([O-])c1cc([N+](=O)[O-])c(O)c([N+](=O)[O-])c1 | inactive: -1.63% |
| O=[N+]([O-])c1cc([N+](=O)[O-])c(-c2cnn(-c3ccccc3)c2)c([N+](=O)[O-])c1 | inactive: 0.843% |
| Cc1cc(C)cc(OP(C)(=O)Nc2ccc(SC(F)(F)F)cc2)c1 (stereo not given) | inactive: -3.76% |
| CP(=O)(NC(=O)Nc1ccccc1)Oc1ccccc1 (stereo not given) | inactive: -2.02% |
| CCc1ccc(OP(C)(=O)N2CCN(c3ccc([N+](=O)[O-])cc3)CC2)cc1 (stereo not given) | inactive: -7.69% |
| CP(=O)(Oc1ccccc1)OC(c1ccccc1)C(F)(F)F (stereo not given) | inactive: 1.84% |
| Cc1cccc(C)c1OP(C)(=O)Nc1ccc(SC(F)(F)F)cc1 (stereo not given) | inactive: -0.858% |

| SMILES | inhibition |
| --- | --- |
| CP(=O)(Nc1ccccn1)Oc1ccc(Cl)cc1 (stereo not given) | inactive: -0.7% |
| CCOP(C)(=S)SCC(=O)NC(C)C(=O)O (stereo not given) | inactive: -1.16% |
| CCOC(=O)c1ccc(NP(C)(=O)Oc2ccc(OC)cc2)cc1 (stereo not given) | inactive: 0.899% |
| COc1ccccc1OP(C)(=O)Nc1ccccc1 (stereo not given) | inactive: 0.039% |
| CP(=O)(Nc1ccccc1Br)Oc1ccccc1 (stereo not given) | inactive: 0.168% |
| CP(=S)(Nn1cnnc1)Oc1ccccc1 (stereo not given) | inactive: 1.44% |
| Cc1cccc(C)c1OP(C)(N)=O (stereo not given) | inactive: 2.11% |
| CC(C)(C)c1ccc(OP(C)(=O)Nc2ccc(SC(F)(F)F)cc2)cc1 (stereo not given) | inactive: -6.47% |
| O=[N+]([O-])c1ccc2c(c1)C=Nc1ccccc1O2 | inactive: -6.63% |
| O=[N+]([O-])c1cc([N+](=O)[O-])c(Nc2cccnc2)c([N+](=O)[O-])c1 | inactive: -0.435% |
| COc1ccc(OP(C)(=O)Nc2cccc(F)c2)cc1 (stereo not given) | inactive: -7.33% |
| COc1ccccc1OP(C)(=O)Nc1cc(Cl)ccc1C (stereo not given) | inactive: 0.112% |
| Cc1cc(C)cc(OP(C)(N)=O)c1 (stereo not given) | inactive: -5.51% |
| CCOC(=O)c1ccc(NP(C)(=O)Oc2ccccc2)cc1 (stereo not given) | inactive: -0.593% |
| Cc1ccc(NP(C)(=O)Oc2ccccc2)c(C)c1 (stereo not given) | inactive: -1.5% |
| COc1ccccc1OP(C)(=O)Nc1ccc(C)cc1 (stereo not given) | inactive: -4.54% |
| CCN(CC)CCCOC(=O)C(O)(c1ccccc1)c1ccccc1 | inactive: 2.53% |
| CN(C)CCOC(=O)C(O)(c1ccccc1)C1CCCC1 (stereo not given) | inactive: -2.31% |
| COc1ccc(OP(C)(=O)Nc2ccccn2)cc1 (stereo not given) | inactive: -5.87% |
| COc1ccccc1OP(C)(=O)Nc1ccc(Br)cc1 (stereo not given) | inactive: -2.48% |
| CCc1ccc(OP(C)(=O)O)cc1 | inactive: -2.25% |
| COc1ccccc1OP(C)(=O)Nc1ccc(C)cc1C (stereo not given) | inactive: 3.5% |
| CP(=O)(Nc1ccccn1)Oc1ccccc1 (stereo not given) | inactive: -1.89% |

| SMILES | inhibition |
| --- | --- |
| Cc1c(NP(C)(=O)Oc2ccc(C(C)C)cc2)c(=O)n(-c2ccccc2)n1C (stereo not given) | inactive: 4.8% |
| O=[N+]([O-])c1cc([N+](=O)[O-])c(Nc2ccccn2)c([N+](=O)[O-])c1 | inactive: -2.58% |
| COc1ccc(OP(C)(=O)Nc2ccccc2Br)cc1 (stereo not given) | inactive: -1.04% |
| COc1ccccc1OP(C)(=O)Nc1ccc(C)c(C)c1 (stereo not given) | inactive: -5.16% |
| Cc1cc(C)cc(OP(C)(=O)Nc2cccc(C(F)(F)F)c2)c1 (stereo not given) | inactive: 1.24% |
| O=C1C(O)=C([N+](=O)[O-])C(=O)C(O)=C1[N+](=O)[O-] | inactive: -4.96% |
| CCCCCCCCCCCCCCCC1C[N+](C)(C)CCOP(C)(=O)O1 (stereo not given) | inactive: 4.06% |
| CP(=O)(Nc1ccc(Cl)cc1Cl)Oc1ccccc1 (stereo not given) | inactive: -7.25% |
| CP(=O)(OCCOc1ccccc1)OCCOc1ccccc1 | inactive: -2.87% |
| CP(=O)(OC12CC3CC(CC(C3)C1)C2)OC12CC3CC(CC(C3)C1)C2 | inactive: -1.3% |
| CCOC(=O)c1ccc(NP(C)(=O)Oc2ccc(Cl)cc2)cc1 (stereo not given) | inactive: -6.93% |
| CCc1ccc(OP(C)(=O)Nc2cccnc2)cc1 (stereo not given) | inactive: -0.64% |
| CP(=O)(Oc1ccccc1)N1CCOC1=O (stereo not given) | inactive: -0.056% |
| O=C(OCCCN1CCCC1)C(O)(c1ccccc1)C1CCCCC1 (stereo not given) | inactive: 2.35% |
| COc1ccccc1OP(C)(=O)Nc1c(C)n(C)n(-c2ccccc2)c1=O (stereo not given) | inactive: -1.45% |
| COc1ccc(OP(C)(=O)Nc2ccc(Br)cc2)cc1 (stereo not given) | inactive: -5.93% |
| CCN(CC)CC(O)COC(=O)C(O)(c1ccccc1)C1CCCCC1 (stereo not given) | inactive: 1.83% |
| CN(C)C(=O)c1c([N+](=O)[O-])cc([N+](=O)[O-])cc1[N+](=O)[O-] | inactive: -4.45% |
| CP(=O)(Nc1ccc(Cl)cc1)Oc1ccc(F)cc1 (stereo not given) | inactive: -3.39% |
| COc1ccccc1OP(C)(=O)Nc1ccccc1Br (stereo not given) | inactive: -3.07% |
| CC(C)(C)c1ccc(OP(C)(=O)O)cc1 | inactive: -3.66% |
| CCOP(C)(=S)SCC(=O)NC(C)(CC)C(=O)O (stereo not given) | inactive: -5.81% |
| CP(=O)(Nc1ccc(SC(F)(F)F)cc1)Oc1ccc(F)cc1 (stereo not given) | inactive: -3.89% |

| SMILES | inhibition |
| --- | --- |
| Cc1ccccc1NP(C)(=O)Nc1ccccc1C | inactive: -1.06% |
| CP(=O)(Nc1ccc2c(c1)OCCO2)Oc1ccccc1 (stereo not given) | inactive: 0.526% |
| COc1ccc(NP(C)(=O)Oc2ccccc2OC)cc1 (stereo not given) | inactive: 2.12% |
| CN(C)CCOC(=O)C(O)(c1ccccc1)C1CCCCC1 (stereo not given) | inactive: -3.35% |
| COc1ccc(OP(C)(=O)Nc2cccc(Br)c2)cc1 (stereo not given) | inactive: 0.828% |
| Cc1c(C(c2ccc3c(c2)OCO3)c2c(C)n(C)n(-c3ccccc3)c2=O)c(=O)n(-c2ccccc2)n1C.O=[N+]([O-])c1cc([N+](=O)[O-])c(O)c([N+](=O)[O-])c1 | inactive: -6.49% |
| Cc1cc(-c2cccc3ccccc23)c(C)cn1.O=[N+]([O-])c1cc([N+](=O)[O-])c(O)c([N+](=O)[O-])c1 | inactive: -2.83% |
| O=[N+]([O-])c1cc([N+](=O)[O-])c(NCC2CCS(=O)(=O)C2)c([N+](=O)[O-])c1 (stereo not given) | inactive: -2.06% |
| O=[N+]([O-])c1ccc(OP2(=O)COCCO2)cc1 (stereo not given) | inactive: -2.57% |
| COc1ccc(OP(C)(=O)Nc2ccc(SC(F)(F)F)cc2)cc1 (stereo not given) | inactive: -1.4% |
| CCOC(=O)c1ccc(NP(C)(=O)Oc2ccc(F)cc2)cc1 (stereo not given) | inactive: -2.4% |
| CCCCCOc1ccc(NP(C)(=O)Oc2ccc(Cl)cc2Cl)cc1 (stereo not given) | inactive: -3% |
| O=[N+]([O-])c1cc([N+](=O)[O-])c(OC2CCCCC2O)c([N+](=O)[O-])c1 (stereo not given) | inactive: -1.12% |
| CP(=O)(Nc1ccccc1)Oc1ccc(F)cc1 (stereo not given) | inactive: -10.3% |
| CCN(CC)CCCOC(=O)C(O)(c1ccccc1)C1CCCCC1 (stereo not given) | inactive: -1.37% |
| Cc1c([N+](=O)[O-])cc([N+](=O)[O-])c(Br)c1[N+](=O)[O-] | inactive: -6.8% |
| CC(C)c1ccc(OP(C)(=O)Nc2ccc(SC(F)(F)F)cc2)cc1 (stereo not given) | inactive: 3.99% |
| CP(=O)(Nc1ccccc1F)Oc1ccccc1 (stereo not given) | inactive: -3.89% |
| COc1ccc2c(c1O)-c1c(O)c(OC)cc3c1[C@H](C2)[N+](C)(C)CC3.O=[N+]([O-])c1cc([N+](=O)[O-])c([O-])c([N+](=O)[O-])c1[O-] | inactive: 3.17% |
| O=C(OCCN1CCN(CCOCc2ccccc2)CC1)C(O)(c1ccccc1)c1ccccc1 | inactive: -1.48% |
| O=C(OC1CN2CCC1CC2)c1ccc([N+](=O)[O-])cc1 (stereo not given) | inactive: -1.98% |
